{
  "sequences": {"note": "Amino acid sequences for entries named in this document (tags omitted). Residues count along the entry.", "UniProt P06276, 29-602": "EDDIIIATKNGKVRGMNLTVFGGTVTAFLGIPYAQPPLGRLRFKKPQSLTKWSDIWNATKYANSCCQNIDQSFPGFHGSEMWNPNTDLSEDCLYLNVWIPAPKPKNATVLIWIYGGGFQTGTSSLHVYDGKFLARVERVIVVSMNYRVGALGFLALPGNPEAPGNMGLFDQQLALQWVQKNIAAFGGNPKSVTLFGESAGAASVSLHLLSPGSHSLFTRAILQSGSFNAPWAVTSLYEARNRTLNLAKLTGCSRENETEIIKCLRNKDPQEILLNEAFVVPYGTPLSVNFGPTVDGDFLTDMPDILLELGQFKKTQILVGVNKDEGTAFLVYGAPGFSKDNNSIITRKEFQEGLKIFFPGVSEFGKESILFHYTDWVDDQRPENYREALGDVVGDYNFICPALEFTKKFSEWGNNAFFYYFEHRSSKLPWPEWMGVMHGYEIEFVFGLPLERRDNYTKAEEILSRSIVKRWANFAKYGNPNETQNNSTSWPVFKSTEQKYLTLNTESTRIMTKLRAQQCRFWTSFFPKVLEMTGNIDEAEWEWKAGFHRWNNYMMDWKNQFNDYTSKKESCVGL"},
  "source": "paper PMC11510214",
  "about": "“Novel Dual Acetyl- and Butyrylcholinesterase Inhibitors Based on the Pyridyl–Pyridazine Moiety for the Potential Treatment of Alzheimer’s Disease” (Pharmaceuticals, 2024)",
  "target": "butyrylcholinesterase (BuChE) (Homo sapiens, UniProt P06276)",
  "experiment": "biochemical",
  "conditions": "IC50 against butyrylcholinesterase (BuChE), human enzyme; dose response 0.01 to 100 µM",
  "data": [
    {"smiles": "CCN(C)C(=O)Oc1cccc([C@H](C)N(C)C)c1", "note": "[Rivastigmine, rivastigmine, reference compound]", "values": [
      {"measurement": "IC50", "result": "18.1 ± 0.59", "unit": "µM"}
    ]}
  ]
}
